## AlphaSeq binding of Ab-95 light chain variants to a spike HR2 peptide

Data: MIT Lincoln Laboratory AlphaSeq set, Engelhart et al. 2022, doi:10.1038/s41597-022-01779-4, as distributed in FLAb.

All variants were tested on one target, the spike HR2 peptide PDVDLGDISGINAS (SARS-CoV-2).

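Phage display of a naive human antibody library on the peptide gave the parent. Variants in AAYL52 differ from the parent at up to three CDR positions; double and triple changes were sampled at random. Affinity was read by AlphaSeq, a pooled yeast mating assay with surface-displayed partners. After mating in shaken culture at 30 °C for 16 h, diploids were selected and their barcode pairs sequenced. The ratio of observed to expected reads was calibrated, replicate by replicate, on BCL2-family standards whose Kd was known from biolayer interferometry. Each pool was mated in three replicate cultures.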

Parent: Ab-95, a human scFv built as VH, the linker GGGGSGGGGSGGGGS, VL. Only the CDRs of the light chain vary.
VH: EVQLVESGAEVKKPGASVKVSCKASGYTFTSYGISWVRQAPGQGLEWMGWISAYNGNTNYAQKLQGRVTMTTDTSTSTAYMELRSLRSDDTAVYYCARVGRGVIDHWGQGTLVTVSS
VL: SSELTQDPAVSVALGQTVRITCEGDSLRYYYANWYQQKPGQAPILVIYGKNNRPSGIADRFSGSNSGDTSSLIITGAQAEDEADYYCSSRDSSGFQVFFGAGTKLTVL

Variants are written as CDR1, CDR2 and CDR3 of the light chain (limits as in the source). Parent: EGDSLRYYYAN, GKNNRPS, SSRDSSGFQVF.
Every variant below is changed at S26 of the VL (sequential numbering).
The read-out is the apparent dissociation constant on a log10 scale (nM): the lower, the stronger.
Averages over replicates are reported, and they cover detected replicates only.
"ND" marks a missing value. The strain was present, yet no cells mated with the target were sequenced in that replicate, which points to weak or no binding.
In this assay the parent's reference entry averaged 2.31; its copy inside this library read 2.25.

Variant FGDVLRYYYAN | GKNNRPS | SSMDSSGFQVF gave 3.74, ND, ND. With EGDHLRYYYAN | GKNNRTS | SSRDSSGFQDF the result was 4.37, 3.19, ND (mean 3.78). For EGDCLRYYYAN | GKNNRPS | SWRDSSRFQVF, the assay gave ND, ND, ND. Variant EGDYLDYYYAN | GKNNRPS | SSRDSSGFQVS gave ND, 4.55, ND. Variant EGDVLRYYYAN | GKNIRPS | SSRDSEGFQVF gave ND, ND, ND. For EGTPLRYYYAN | GKNNRPS | ASRDSSGFQVF, the assay gave 2.79, 2.90, 2.89 (mean 2.86).

For EGDMLRYYYAN | GKNNRPH | SSRDSSGFQVF, the assay gave 4.27, 4.36, 3.08 (mean 3.91). Variant EGDCLRYYYAN | GKNNRPS | SSRDSSGFQVQ showed ND, ND, ND. Variant EGDQLRNYYSN | GKNNRPS | SSRDSSGFQVF gave 3.49, 3.32, 3.04 (mean 3.28). With EGDKLRYIYAN | GKNNRPS | SSRDSIGFQVF the result was ND, ND, ND. Variant EGDPLRYYPAN | GKNNRPS | SSRDSSTFQVF gave 0.78, 1.08, 0.10 (mean 0.65). For EGDYLRYYYAN | GKHNRPS | SSRDSSFFQVF, the assay gave 4.10, 4.12, ND (mean 4.11).

Variant EGDELRYMYAE | GKNNRPS | SSRDSSGFQVF gave 3.26, ND, ND. Variant EGDYLRYYYAN | GKHNRPS | SSRDSSAFQVF showed 4.50, ND, ND. For EGDKLRYYYDN | GKKNRPS | SSRDSSGFQVF, the assay gave 5.48, ND, ND. For EGDNLRYYYVN | GKNNRPS | SSRDSSGFVVF, the assay gave ND, 3.24, 3.19 (mean 3.22). With EGDYLRYYYAN | GKNNYPS | SSRDSSGFNVF the result was 4.16, ND, ND. Variant EGDNLRYYYAN | GKNNNPS | SSRDVSGFQVF showed ND, 4.58, 3.04 (mean 3.81).

With EGPGLRYYYAN | GKNNRPS | SSRDSSGFQSF the result was 3.39, 3.29, 3.07 (mean 3.25). For EGDLLRYYYAN | GKNNRPS | SSRDASMFQVF, the assay gave ND, 4.18, ND. Variant EGDMLRYYYAN | GKNNRPS | SSMDSSGFQVF gave 4.18, ND, ND. Variant EGKLLRYYYAN | GKNNRPS | SSRDSSGFQVF showed 3.18, 4.58, ND (mean 3.88). For YGDCLRYYYGN | GKNNRPS | SSRDSSGFQVF, the assay gave ND, ND, ND. Variant EGDPLRYYYAN | GKNNRRW | SSRDSSGFQVF showed 4.24, 4.42, 4.03 (mean 4.23).

For EGDELRYYYAN | GKNNRPS | SSRDESGFQVF, the assay gave 2.19, 2.37, 2.03 (mean 2.20). With EQDTLRYYYAN | GKNNRPS | SSRDTSGFQVF the result was 5.41, 2.82, 3.05 (mean 3.76). For MGDGLRYYYHN | GKNNRPS | SSRDSSGFQVF, the assay gave 2.99, 2.65, 1.95 (mean 2.53). With QGDKLRYYYAN | GKNNRIS | SSRDSSGFQVF the result was ND, ND, ND. For EGDVLRYYYAN | KKNNRPS | SVRDSSGFQVF, the assay gave 4.12, ND, ND. Variant EGDQLRYYHAN | GKMNRPS | SSRDSSGFQVF gave 4.31, 4.63, ND (mean 4.47).

For EGDQLRYTYAN | GINNRPS | SSRDSSGFQVF, the assay gave 2.29, 2.56, 2.91 (mean 2.59). With EGDNLRYYPAN | GKNNRIS | SSRDSSGFQVF the result was 3.11, 3.85, 2.92 (mean 3.30).

The opening 2 entries, copied out:

{"CDR-L1": "FGDVLRYYYAN", "CDR-L2": "GKNNRPS", "CDR-L3": "SSMDSSGFQVF", "log10 Kd, replicates": "3.74, ND, ND", "mean log10 Kd (nM)": "3.74"}
{"CDR-L1": "EGDHLRYYYAN", "CDR-L2": "GKNNRTS", "CDR-L3": "SSRDSSGFQDF", "log10 Kd, replicates": "4.37, 3.19, ND", "mean log10 Kd (nM)": "3.78"}

Three control strains display no target. For library AAYL52, 28% of the pairings with them gave a signal, with a median of 3.91 and one signal in twenty below 2.90, so weak values seen in few replicates may be background.